Assay results published in patent US20090215650A1, “SUBSTRATES WITH STABLE SURFACE CHEMISTRY FOR BIOLOGICAL MEMBRANE ARRAYS AND METHOD FOR FABRICATING THEREOF” (priority 2002, published 2009).

Assay: Stability of lipid arrays with or without BSA on drawing through water/air interface
Settings: buffer with 0.1% BSA vs buffer only; drawn 5 times through water/air interface, rinsing, drying
Description: Lipid microarrays were generated using either a contact printing technique (e.g., quill pin) or manual spotting on a slide surface, and incubated in a humid chamber at room temperature. Afterwards, the lipid microarrays were covered by buffer with or without generic proteins (between ˜0.01% and ˜1%), and incubated for ten minutes. The lipid arrays were then rinsed with buffer to remove unbound proteins.
To evaluate the stability of the lipid arrays, the printed slides were drawn through a water/air interface several times, and then imaged in a fluorescence microscope or a scanner. To evaluate the functionality of lipid/protein arrays, fluorescent dye-labeled probe molecules were introduced into the solution, followed by rinsing to remove unbound molecules, drying, and imaging.
Arrays of lipids containing either 1% (mol) Texas Red-DHPE or 2% biotin-x-DHPE were printed onto bare glass slides, Corning GAPS slides and Brij-MHA-gold surfaces. On each slide there were two 4×4 arrays. One array was covered with buffer containing 0.1% BSA, while the second array was covered with buffer in the absence of BSA. After 10 minutes these slides were drawn through the water/air interface 5 times. […] After drawing the slides through the interface, the lipid arrays were covered again by buffer and further examined in a fluorescence microscope or scanner.

bovine serum albumin [BSA]
stability of lipid arrays: significantly increases the stability of lipid arrays; also recorded: protects the lipid arrays from being removed from the surfaces

Entries after “also recorded” stand apart in the source; their conditions may differ.
